Publication PMC7017188

Molecular target: biotinylated 60S ribosomal subunit
Assay: AlphaScreen or HTRF; homogeneous, in solution in 384-well plates; serial dilution of His-tagged eIF6 with 0.5 nM 60S-Bio; streptavidin donor beads capture 60S-Bio, Ni-NTA acceptor beads His-eIF6 (20 ug/mL each); PBS pH 7.4, 5 mM MgCl2, 0.2% BSA, 0.02% Tween-20; room temperature

Kd: 40 nM
Substance: His-tagged eukaryotic initiation factor 6 (eIF6), full length recombinant (from UniProt P56537 1-245) (natural protein)
